# What was measured:
# [1] = tested on: neonatal chronic hypoxia model (dorsal SVZ and cortex); test: Neonatal chronic hypoxia model of preterm birth brain injury, intranasal administration; type: in vivo, mice
# Experimental: Mice aged P1 were placed in a hypoxic rearing chamber maintaining at 9.5-10.5% O2 concentration by displacement with N2. Hypoxia began at the postnatal day 3 (P3) for 8 days until P11. A separate group was maintained in a normal atmosphere (normoxic group). Drugs were administered by intranasal administration with sm5 at 5 μg per g and sm11 at 0.5 μg per g. Mucus was first permeabilized by the use of type IV hyaluronidase, then 10 μl of drugs (Sigma) was administered 3 times, 1 time a day from P11 to P13 (starting at the end of the hypoxic period, then every 24 hours) in sterile PBS (control). For analysis of proliferation, mice were injected with EdU (Sigma) in order to label cells in an actively cycling state in S-phase, then perfused 1 h later at P13. For analysis of OL maturation, mice were perfused at P19. All perfusions were performed with Ringer, followed by ice cold solution of 4% paraformaldehyde (Thermo Fisher). Mice were sacrificed at P13 or P19 by an intraperitoneal overdose of pentobarbital followed by perfusion with Ringer's lactate solution and 4% paraformaldehyde (PFA; Sigma) dissolved in 0.1M phosphate buffer (PB; pH 7.4). Brains were removed and post-fixed for 24 hours at 4° C. in 4% PFA and sectioned in 50 μm thick coronal serial sections, free floating sections.
# For in vivo-cryosections (50 μm) of chronic hypoxia, antigen retrieval was performed for 20 min in a citrate buffer (ph 6.0) at 80° C., then cooled for 20 min at room temperature and washed in 0.1M PB. The following antibody were used for immunohistochemical procedures: Mouse anti-APC (CC1 IgG2B; 1:100, calbiochem); Mouse anti-Olig2 (1:1500; Millipore); Rabbit anti-Olig2 (1:400; Millipore); Rabbit anti-GSTpi (1:1000, Enzo). Blocking was performed in a TNB buffer (0.1 M PB; 0.05% Casein; 0.25% Bovine Serum Albumin; 0.25% TopBlock) with 0.4% triton-X (TNB-Tx). Sections were incubated overnight at 4° C. with gentle shaking. Following extensive washing in 0.1 M PB with 0.4% triton-X (PB-Tx), sections were incubated with appropriate secondary antibodies conjugated with Alexa Fluor 488 or 555 (1:500; Jackson or Invitrogen) for 2 hrs at room temperature. Sections were washed and counterstained with Dapi (1:5000 from a working solution at 5 mg/ml; Life Technologies; D1306). Revelation of EdU was done using Click-it™, EdU cell proliferation Kit for imaging, Alexa fluor™ 647 dye (Thermo Fisher scientific).
# Chronic hypoxia is a well-established model of very preterm birth, that induces a diffuse perinatal brain lesion by housing the pups at 10% oxygen from P3 to P11 (FIG. 5A). This neonatal hypoxia induces a marginal cell death including neuronal and glial cells along with delay into forebrain development including OL maturation that appear to persist in adulthood. Thus, we assessed sm5 and sm11 effects, as pro-oligodendroglial treatment, following hypoxia. […] To examine the impact of Sm5 and Sm11 on OL lineage proliferation, brains were analyzed at P13, corresponding to the end of the treatment period, following an administration of EdU one hour before sacrifice to label cells in S-phase. […] To look at the impact of sm5 and sm11 on OL lineage proliferation and maturation, brains were analyzed within the cortex six days following the last administration (P19). […] We next assessed the impact on OL differentiation by immunodetection of OLs with CC1 antibody and oligodendroglial cells by Olig2. […]
# [2] = tested on: focal demyelination in the corpus callosum of adult mice; test: Lysolecithin (LPC) induced focal de/remyelination model in adult mice, oral administration in drinking water; type: in vivo; settings: 7 dpl, oral daily
# Experimental: We weighted and anesthetized 4 months old RjOrl: SWISS mice (Janvier) with isoflurane (induced at 3%, and maintained at 1.2-1.6%). We induced focal demyelinating lesions by injecting 0.5 μl of a solution of 1% lysolecithin (LPC, Sigma in 0.9% NaCl solution) into the corpus callosum. To do so, a glass-capillary connected to a 10 μl Hamilton syringe was fixed and oriented through stereotaxic apparatus (coordinates: 1 mm lateral, 1.3 mm rostral to Bregma, 1.7 mm deep to brain surface). Animals were left to recover for a few hours in a warm chamber. Control and drugs sm5 and sm11 (sm5 at 5 μg per g and sm11 at 035 μg per g) were administered daily in 5%-glucose drinking water and their consumption was measured. Mice was perfused at 2% cold paraformaldehyde (thermos fisher) at 7 DPI.
# For in-vivo cryosections (14-μm thick) of lesions, immunohistochemistry was performed after 30 mn drying at RT in a moist chamber. For myelin staining, ethanol treatment (100%) was performed for 10 mn at RT. Briefly, sections were permeabilized and blocked in a blocking buffer for 1 h (0.05% Triton X-100/10% normal goat serum/PBS). […]
# To assess the pro-oligodendrogenic capacity of sm5 and sm11 in vivo in the context of adult remyelination, we used lysolecithin (LPC) to induce the breakdown of lipid-rich myelin membranes and focal demyelination in the corpus callosum of adult (4 months old) mice. […] We analyzed the lesions at 7 days post-lesion (7 dpl), when newly formed OLs have started to remyelinate the lesion in this model. […] We determined the effect of the drugs to promote oligodendrogenesis at the lesion site by combinatory immunodetection of Olig2, CC1 and Olig1, allowing to distinguish OPCs (Olig2^high/CC1^−/Olig1^nuclear-cyto cells) and three stages in OL differentiation: iOL1 (Olig2^high/CC1^high/Olig1^− cells), iOL2 (Olig2^high/CC1^high/Olig1^high-cyto cells), and mOL (Olig2^low/CC1^low/Olig1^low cells). […]
# [3] = tested on: cerebellar slices explants; test: Ex vivo cerebellar organotypic explant culture, differentiation and myelination index; type: cell-based, mice; settings: 750 nM, three days (7-10 DIV)
# Experimental: We prepared cerebellar organotypic cultures from newborn (P0) mice. Cerebellar parasagittal slices (350 μm thick) were cut on a McIlwain tissue chopper and transferred onto 30 mm diameter Millipore culture inserts with […] (Millicell, Millipore). Slices were maintained in incubators at 37° C., under a humidified atmosphere containing 5% CO2 in six-well-plates containing 1 mL of slice culture media. This medium includes basal medium eagle (Invitrogen), 25% complete HBSS, 27 mM D-glucose, 100 U/mL penicillin/streptomycin, 1 mM glutamine (Sigma) and 5% horse serum (New Zealand origin, heat inactivated; Invitrogen). […]
# Then, we firstly performed a simpler and faster experimental model using cerebellar slices explants to identify the best drugs having pro-oligodendrogenenic and pro-myelinating activities in this ex vivo model, to be used in the in vivo analyses. […] Therefore, we analyzed the effect of incubating the cerebellar explants for three days (7-10 days in vitro, DIV) in the presence of the top-4 small molecules having higher pro-oligodendrogenic activity in culture (sm1, sm2, sm5, sm11), and their associated negative controls (vehicle: DMSO or PBS). We then analyzed the effect in terms of OL numbers (CC1+/Sox10+ cells) and myelination (MBP labeling on CaBP+ Purkinje cell axons), by immunodetection of all four markers in the same sections. […]
smiles,measurement,setting,value
"Nc1nc(=O)c2c([nH]1)NCC(CNc1ccc(C(=O)N[C@@H](CCC(=O)O)C(=O)O)cc1)N2C=O.[Ca+2] (stereo partly shown) [Sm11, Calcium folinate]",EdU+ cell density within the subventricular zone (proliferation),"[1]; P13, intranasal P11 to P13, sm5 at 5 μg per g, sm11 at 0.5 μg per g, versus hypoxia, FIG. 6A",no marked additive effects
same,"proportion of Olig2+ cells labeled with EdU (proliferative OPCs, dorsal SVZ)","[1]; P13, intranasal P11 to P13, versus hypoxia, FIG. 6B",significant increase
same,"myelinating OLs (GSTπ+ cells), GSTπ expression","[1]; P19, cortex, intranasal P11 to P13, after hypoxia, FIG. 5D",complete recovery
same,"OL differentiation, ratio of Olig2+ cells expressing CC1","[1]; P19, cortex, intranasal P11 to P13, compared to hypoxic and normoxic groups, FIG. 5C",rescued the ratio at a similar level than the normoxic group
same,density of oligodendroglial cells (Olig2+ cells) in the cortex,"[1]; P19, intranasal P11 to P13, FIG. 5B",no major effect
same,increase of the differentiation ratio (number of OLs per OPC) versus control,[2]; FIG. 4F,3 fold
same,reduction in the actively phagocytic microglia/macrophages (Cd68+ cells) versus control,[2]; FIG. 4H,~2 fold
same,differentiation ratio (number of OLs per OPC),"[2]; control 25% (1 OLs for 4 OPCs), FIG. 4F",85%
same,differentiation index (CC1+/Sox10+ OLs number),"[3]; compared to negative controls, FIG. 3B",increased differentiation index
same,"myelination process (MBP+/CaBP+), myelination index","[3]; compared to vehicle, FIG. 3C",robust increase
